Results on 23 molecules are retold here after patent US20250313563A1, “GLYCOGEN SYNTHASE KINASE 3 INHIBITORS AND USES THEREOF” (The Broad Institute, Inc., priority 2022, published 2025).

Chains of the proteins cited; added tags and fusions are not shown.
UniProt P49841, whole entry: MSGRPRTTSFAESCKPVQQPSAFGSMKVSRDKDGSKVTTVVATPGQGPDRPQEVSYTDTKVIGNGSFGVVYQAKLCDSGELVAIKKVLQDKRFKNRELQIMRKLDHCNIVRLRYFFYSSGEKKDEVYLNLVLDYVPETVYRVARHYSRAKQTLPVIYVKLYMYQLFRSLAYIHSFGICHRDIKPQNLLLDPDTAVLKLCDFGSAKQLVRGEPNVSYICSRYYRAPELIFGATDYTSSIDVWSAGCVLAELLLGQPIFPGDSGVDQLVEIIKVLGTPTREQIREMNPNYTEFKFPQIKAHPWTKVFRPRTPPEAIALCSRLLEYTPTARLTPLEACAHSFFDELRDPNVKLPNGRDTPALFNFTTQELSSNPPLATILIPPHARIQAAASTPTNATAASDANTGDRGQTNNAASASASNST
UniProt P49840, whole entry: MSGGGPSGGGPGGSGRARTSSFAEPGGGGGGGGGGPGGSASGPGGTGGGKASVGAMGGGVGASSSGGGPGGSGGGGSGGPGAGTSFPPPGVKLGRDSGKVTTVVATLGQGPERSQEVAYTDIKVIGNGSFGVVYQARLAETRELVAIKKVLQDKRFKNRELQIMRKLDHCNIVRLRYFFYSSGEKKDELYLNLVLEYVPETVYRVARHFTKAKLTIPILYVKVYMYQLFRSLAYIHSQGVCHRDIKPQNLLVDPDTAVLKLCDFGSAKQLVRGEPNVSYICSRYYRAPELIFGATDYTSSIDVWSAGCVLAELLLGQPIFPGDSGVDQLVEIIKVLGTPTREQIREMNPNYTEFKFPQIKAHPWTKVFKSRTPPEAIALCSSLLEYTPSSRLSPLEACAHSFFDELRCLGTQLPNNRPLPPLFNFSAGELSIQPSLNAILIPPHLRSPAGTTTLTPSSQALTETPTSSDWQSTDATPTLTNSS

For test [1], the target named is GSK3b (GST-full length GSK3b) (Homo sapiens (Human), UniProt P49841). Kind of test: GSK3b TR-FRET kinase assay. The test is classed as biochemical. For orientation: Time-resolved FRET reads energy transfer from a long-lived donor to a nearby acceptor.
Test [2] deals with GSK3α (GST-full length GSK3α) (Homo sapiens (Human), UniProt P49840). The experiment in a line: GSK3α TR-FRET kinase assay. It is filed as biochemical.
The mark [3] stands for this setting: read-out: GSK3-B TR-FRET BIOCHEMICAL (TR-FRET);, 1 nM GSK3b, 2 μM ATP, 30 minute preincubation, Table 16.
Setting [4] is: read-out: GSK3-A TR-FRET BIOCHEMICAL (TR-FRET);, 1 nM GSK3α, 4 μM ATP, 30 minute preincubation, Table 16.
Where [5] appears, read: read-out: GSK3-B TR-FRET BIOCHEMICAL (TR-FRET), GMean, IC50, 1 nM GSK3b, 2 μM ATP, 30 minute preincubation, geometric mean.
The mark [6] stands for this setting: read-out: GSK3-A TR-FRET BIOCHEMICAL (TR-FRET), GMean, IC50, 1 nM GSK3α, 4 μM ATP, 30 minute preincubation, geometric mean.
Setting [7] is: read-out: GSK3-B TR-FRET BIOCHEMICAL (TR-FRET), IC50, 1 nM GSK3b, 2 μM ATP, 30 minute preincubation (Table 16).
Setting [8] is: read-out: GSK3-A TR-FRET BIOCHEMICAL (TR-FRET), IC50, 1 nM GSK3α, 4 μM ATP, 30 minute preincubation (Table 16).
Where [9] appears, read: read-out: GSK3-B (TR-FRET 1 mM ATP), GMean, IC50, 1 mM ATP, geometric mean.
[10] abbreviates: read-out: GSK3-A (TR-FRET 1 mM ATP), GMean, IC50, 1 mM ATP, geometric mean.

Read-outs that look alike come from different tables or passages of the source. A value given as a limit tells only on which side of the number the result lay.

`CC1(C)CC(=O)C2=C(C1)Nc1n[nH]cc1[C@@]21COC2(CN(C(=O)[C@H]3CC3(F)F)C2)C1`: the IC50 lay within 1 to 5 µM in test [1] (read-out: GSK3-B TR-FRET BIOCHEMICAL (TR-FRET), IC50, 1 nM GSK3b, 2 μM ATP, 30 minute preincubation) and 0.1 to 1 µM in test [2] (read-out: GSK3-A TR-FRET BIOCHEMICAL (TR-FRET), IC50, 1 nM GSK3α, 4 μM ATP, 30 minute preincubation).
Consider `CC[C@]1(c2cccc(CN(C)c3ccnc(C)c3)c2)C2=C(CC(C)(C)CC2=O)Nc2n[nH]cc21`, for which the IC50 in test [1] (setting [3]) and in test [2] (setting [4]) was more than 5 µM each time.
As to `CCC1(c2cccc(NC(C)=O)c2)C2=C(CC(C)(C)CC2=O)Nc2n[nH]cc21` (centres unmarked), the figures for the IC50 in test [1] (setting [5]) and in test [2] (setting [6]) were 0.1 to 1 µM and less than 0.1 µM, respectively.
For the molecule `CCC1(c2cccc(-c3cc(C)ncc3C)c2)C2=C(CC(C)(C)CC2=O)Nc2n[nH]cc21` (centres unmarked), the IC50 in test [1] (setting [7]) is 0.1 to 1 µM; in test [2] (setting [8]) it was less than 0.1 µM.
For `CC[C@]1(c2cccc(-c3cnn(-c4ccncc4)c3)c2)C2=C(CC(C)(C)NC2=O)Nc2n[nH]cc21` the same measures were more than 5 µM and 0.1 to 1 µM.
On to `CC[C@@]1(c2cccc(N(C)C(C)=O)c2)C2=C(CC(C)(C)CC2=O)Nc2n[nH]cc21`, for which the IC50 in test [1] (setting [5]) and in test [2] (setting [6]) was less than 0.1 µM throughout.
As for `CC[C@@]1(c2cccc(N(C)c3cccc(F)n3)c2)C2=C(CC(C)(C)CC2=O)Nc2n[nH]cc21`, the IC50 in test [1] (setting [7]) and in test [2] (setting [8]) was less than 0.1 µM in each case.
On to `CC(C)(C)Cc1[nH]nc2c1[C@](C)(c1ccccc1)C1=C(CC(C)(C)NC1=O)N2`, for which the IC50 in test [1] (setting [9]) is 1 to 5 µM; in test [2] (setting [10]), more than 5 µM.
In the case of `CC[C@]1(c2cccc(-c3ccnn3C(C)C)c2)C2=C(CC(C)(C)CC2=O)Nc2n[nH]cc21`, the IC50 in test [1] (setting [3]) and in test [2] (setting [4]) was less than 0.1 µM throughout.
With `CCC1(c2cccc(C(F)(F)F)c2)C2=C(Nc3n[nH]cc31)C(C)N(Cc1ccccc1)C2=O` (centres unmarked), the IC50 in test [1] (setting [3]) was 0.1 to 1 µM; in test [2] (setting [4]), less than 0.1 µM.
For `CC1(C)CC(=O)C2=C(C1)Nc1n[nH]c(C(F)(F)F)c1[C@]21CCc2c(F)cccc21`, the IC50 in test [1] (setting [5]) and in test [2] (setting [6]) was less than 0.1 µM in each case.
Take `CC[C@@]1(c2cc(-c3ccnc(C)c3)ccc2F)C2=C(CC(C)(C)CC2=O)Nc2n[nH]cc21`: the IC50 was 0.1 to 1 µM in test [1] (setting [7]) and less than 0.1 µM in test [2] (setting [8]).
As for `CC[C@]1(c2cccc(C(F)(F)F)c2)C2=C(Nc3n[nH]cc31)C(C)(C)NC2=O`, the IC50 in test [1] (setting [3]) and in test [2] (setting [4]) was more than 5 µM each time.
Take `CC[C@@]1(c2cccc(S(=O)(=O)CCOC)c2)C2=C(CC(C)(C)CC2=O)Nc2n[nH]cc21`: the IC50 in test [1] (setting [9]) is 1 to 5 µM; in test [1] (setting [3]) it was less than 0.1 µM; in test [2] (setting [10]), 0.1 to 1 µM; in test [2] (setting [4]), less than 0.1 µM.
Take `CCC1(c2cccc(C(F)(F)F)c2)C2=C(CCN(c3cncnc3)C2=O)Nc2n[nH]cc21` (centres unmarked): the IC50 in test [1] (setting [5]) was 0.1 to 1 µM; in test [2] (setting [6]), less than 0.1 µM.
On to `CC[C@@]1(c2cccc(C(F)(F)F)c2)C2=C(CCN(c3cccnc3)C2=O)Nc2n[nH]cc21`, for which the IC50 in test [1] (setting [9]) is more than 5 µM; in test [1] (setting [5]) it was 0.1 to 1 µM; in test [2] (setting [10]), 0.1 to 1 µM; in test [2] (setting [6]), less than 0.1 µM.
Take `CC[C@]1(c2cccc(-c3ccnc(C)c3C)c2)C2=C(CC(C)(C)NC2=O)Nc2n[nH]c(C)c21`: the IC50 is more than 5 µM in test [1] (setting [5]) and 1 to 5 µM in test [2] (setting [6]).
Regarding `CCC1(c2cccc(-c3ccnc(C(C)C)c3)c2)C2=C(CC(C)(C)CC2=O)Nc2n[nH]cc21` (centres unmarked), the IC50 in test [1] (setting [7]) was 1 to 5 µM; in test [2] (setting [8]) it was 0.1 to 1 µM.
In the case of `CC[C@]1(c2cccc(-c3cc[n+]([O-])cc3[S@+](C)[O-])c2)C2=C(CC(C)(C)CC2=O)Nc2n[nH]cc21`, the IC50 in test [1] (setting [3]) lay within 1 to 5 µM; in test [2] (setting [4]), 0.1 to 1 µM.
Consider `CC(C)(C)Cc1[nH]nc2c1[C@@]1(CCc3ccc(F)cc31)C1=C(CC(C)(C)CC1=O)N2`, for which the IC50 in test [1] (setting [5]) lay in the range of 0.1 to 1 µM; in test [2] (setting [6]) it was 1 to 5 µM.
For the molecule `CC[C@]1(c2cccc(-c3c(C)cncc3C)c2)C2=C(CC(C)(C)CC2=O)Nc2n[nH]cc21`, the IC50 in test [1] (setting [3]) is 0.1 to 1 µM; in test [2] (setting [4]), less than 0.1 µM.
With `CCC1(c2cccc(-c3cc(C)ncc3F)c2)C2=C(CC(C)(C)CC2=O)Nc2n[nH]cc21` (centres unmarked), the IC50 in test [1] (setting [7]) and in test [2] (setting [8]) was less than 0.1 µM in each case.
With `CC[C@@]1(c2cccc([C@H]3CCOC3)c2)C2=C(CC(C)(C)CC2=O)Nc2n[nH]cc21`, the IC50 in test [1] (setting [7]) and in test [2] (setting [8]) was less than 0.1 µM in each case.
